Results on 1 molecule are retold here after patent publication US9034877B2 (Wayne State University, priority 2009, dated 2015).

Protein sequences, listed by entry. Tags and fused reporters are not part of them.
UniProt P19020, whole entry: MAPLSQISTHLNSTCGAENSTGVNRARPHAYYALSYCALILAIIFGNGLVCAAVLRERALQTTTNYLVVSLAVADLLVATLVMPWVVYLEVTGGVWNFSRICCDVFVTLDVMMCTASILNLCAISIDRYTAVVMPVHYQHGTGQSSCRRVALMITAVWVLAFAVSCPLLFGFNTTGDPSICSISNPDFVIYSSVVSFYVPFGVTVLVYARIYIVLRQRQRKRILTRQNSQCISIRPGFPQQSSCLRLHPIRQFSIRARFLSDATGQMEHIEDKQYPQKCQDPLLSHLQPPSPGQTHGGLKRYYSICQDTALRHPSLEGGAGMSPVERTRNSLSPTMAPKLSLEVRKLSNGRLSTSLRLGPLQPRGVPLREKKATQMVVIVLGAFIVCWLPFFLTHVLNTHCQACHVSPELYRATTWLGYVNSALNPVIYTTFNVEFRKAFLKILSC

This assay has as its target T1, D3 receptor (Rattus norvegicus, UniProt P19020).
T1 construct: expressed in transfected cells
The assay can be described thus: Inhibition of [3H]spiperone binding to cloned D3 receptors expressed in HEK-293 cells. As to conditions: rat D3 in HEK-293 cells.

Usually Ki stands for the dissociation constant of the complex between target and ligand, obtained from inhibition or displacement. High values mean lower affinity, low ones higher affinity.

On to `CCCN(CCN1CCN(C(=O)c2ccc3[nH]ccc3c2)CC1)C1CCc2ccc(O)cc2C1` (stereo not shown) [Compound 40a, (4-{2-[(7-Hydroxy-1,2,3,4-tetrahydro-naphthalen-2-yl)-propyl-amino]-ethyl}-piperazin-1-yl)-(1H-indol-5-yl)-methanone], for which the Ki worked out at 1.67 nM.
